{
  "source": "EPA's ToxRefDB 2",
  "key": {"rat [1]": {"test_system": "rat", "conditions": "Prenatal developmental toxicity study, sprague dawley, Oral, Gavage/Intubation, dose end: 12 day"}, "rat [2]": {"test_system": "rat", "conditions": "Prenatal developmental toxicity study, sprague dawley, Oral, Gavage/Intubation, dose end: 21 PND"}, "rat [3]": {"test_system": "rat", "conditions": "Prenatal developmental toxicity study, sprague dawley, Injection, Subcutaneous, group: maternal"}, "rat [4]": {"test_system": "rat", "conditions": "Prenatal developmental toxicity study, long evans, Oral, Water, dose end: 20 PND"}, "rat [5]": {"test_system": "rat", "conditions": "Prenatal developmental toxicity study, long evans, Oral, Water, dose end: 20 PND", "remark": "listed apart in the source"}, "rabbit [6]": {"test_system": "rabbit", "conditions": "Prenatal developmental toxicity study, new zealand white, Oral, Gavage/Intubation, dose end: 13 day"}, "rabbit [7]": {"test_system": "rabbit", "conditions": "Prenatal developmental toxicity study; new zealand white; Oral; Feed; dose end: 29 day; group: maternal; systemic / in life observation / body weight / body weight gain + systemic / in life observation / food consumption / food consumption"}, "mouse [8]": {"test_system": "mouse", "conditions": "Prenatal developmental toxicity study; Oral; Feed; dose end: 109 day; group: maternal; reproductive / reproductive performance / pregnancy / pregnancy + systemic / organ weight / ovary / absolute + systemic / in life …"}, "mouse [9]": {"test_system": "mouse", "conditions": "Prenatal developmental toxicity study; Oral; Feed; dose end: 0 PND; group: maternal; reproductive / reproductive performance / gestational length / gestational length + systemic / in life observation / mortality / mortality"}, "rat [10]": {"test_system": "rat", "conditions": "Prenatal developmental toxicity study; long evans; Oral; Feed; dose end: 0 PND; group: maternal; reproductive / reproductive performance / estrous cycle / abnormal + reproductive / reproductive performance / gestational length / …"}, "rat [11]": {"test_system": "rat", "conditions": "Prenatal developmental toxicity study; long evans; Oral; Feed; dose end: 115 day; group: maternal; reproductive / reproductive performance / pregnancy / pregnancy + systemic / organ weight / ovary / absolute + reproductive / offspring …"}, "[12]": {"conditions": "group: developmental, systemic / in life observation / body weight / fetal weight"}, "[13]": {"conditions": "group: maternal, reproductive / offspring survival early / dead fetuses / dead fetuses + systemic / in life observation / body weight / body weight + …"}, "[14]": {"conditions": "group: maternal, systemic / in life observation / body weight / body weight + systemic / in life observation / body weight / body weight gain"}, "[15]": {"conditions": "group: developmental, developmental / developmental landmark / eye opening / eye opening + systemic / in life observation / body weight / offspring (pup) weight…"}, "[16]": {"conditions": "group: maternal, systemic / in life observation / body weight / body weight gain"}, "[17]": {"conditions": "group: maternal, systemic / in life observation / body weight / body weight gain + systemic / in life observation / mortality / mortality + reproductive / …"}, "[18]": {"conditions": "reproductive / reproductive performance / estrous cycle / abnormal + systemic / in life observation / body weight / body weight gain + …"}, "[19]": {"conditions": "group: developmental, developmental / offspring survival late / [other] / [other] + systemic / clinical chemistry / lipids, total / lipids, total + systemic / …"}, "[20]": {"conditions": "group: maternal, systemic / in life observation / body weight / body weight + systemic / in life observation / water consumption / water consumption"}, "[21]": {"conditions": "group: developmental, systemic / hematology / erythrocyte (rbc) count differential / erythrocyte (rbc) + systemic / hematology / hemoglobin (hgb) / hemoglobin (…"}, "[22]": {"conditions": "group: developmental, systemic / hematology / mean corpuscular (cell) volume (mcv) / mean corpuscular (cell) volume (mcv)"}, "[23]": {"conditions": "group: maternal, systemic / in life observation / water consumption / water consumption"}, "[24]": {"conditions": "group: maternal, reproductive / reproductive performance / aborted / aborted + systemic / in life observation / body weight / body weight + systemic / in …"}, "[25]": {"conditions": "group: maternal, systemic / in life observation / mortality / mortality"}},
  "data": [
    {"smiles": "CCOc1cccc(C2(N3CCN(c4ccccc4)CC3)CCC(C)CC2)c1.CS(=O)(=O)O", "note": "(stereo not drawn)", "values": [
      {"measurement": "LEL", "setting": "rat [1]; [12]", "value": 25, "unit": "mg/kg/day"},
      {"measurement": "LOAEL", "setting": "rat [1]; [12]", "value": "> 255", "unit": "mg/kg/day"},
      {"measurement": "NEL", "setting": "rat [1]; [12]", "value": "< 25", "unit": "mg/kg/day"},
      {"measurement": "NOAEL", "setting": "rat [1]; [12]", "value": "≥ 255", "unit": "mg/kg/day"},
      {"measurement": "LOAEL", "setting": "rat [1]; [13]", "value": "> 255", "unit": "mg/kg/day"},
      {"measurement": "NOAEL", "setting": "rat [1]; [13]", "value": "≥ 255", "unit": "mg/kg/day"},
      {"measurement": "LEL", "setting": "rat [1]; [14]", "value": 25, "unit": "mg/kg/day"},
      {"measurement": "NEL", "setting": "rat [1]; [14]", "value": "< 25", "unit": "mg/kg/day"}
    ]},
    {"smiles": "ClC1=C(Cl)C2(Cl)C3C(Cl)C=CC3C1(Cl)C2(Cl)Cl", "note": "(stereo not drawn) [Heptachlor]", "values": [
      {"measurement": "LEL", "setting": "rat [2]; [15]", "value": 5, "unit": "mg/kg/day"},
      {"measurement": "LOAEL", "setting": "rat [2]; [15]", "value": "> 5", "unit": "mg/kg/day"},
      {"measurement": "NEL", "setting": "rat [2]; [15]", "value": 0.5, "unit": "mg/kg/day"},
      {"measurement": "NOAEL", "setting": "rat [2]; [15]", "value": "≥ 5", "unit": "mg/kg/day"},
      {"measurement": "LEL", "setting": "rat [2]; [16]", "value": 0.5, "unit": "mg/kg/day"},
      {"measurement": "NEL", "setting": "rat [2]; [16]", "value": "< 0.5", "unit": "mg/kg/day"},
      {"measurement": "LOAEL", "setting": "rat [2]; [17]", "value": "> 5", "unit": "mg/kg/day"},
      {"measurement": "NOAEL", "setting": "rat [2]; [17]", "value": "≥ 5", "unit": "mg/kg/day"},
      {"measurement": "NEL", "setting": "rat [3]; reproductive / reproductive performance / estrous cycle / abnormal + systemic / in life observation / body weight / body weight gain", "value": 5, "unit": "mg/kg/day"},
      {"measurement": "LEL", "setting": "rat [3]; [18]", "value": 20, "unit": "mg/kg/day"},
      {"measurement": "LOAEL", "setting": "rat [3]; [18]", "value": "> 20", "unit": "mg/kg/day"},
      {"measurement": "NOAEL", "setting": "rat [3]; [18]", "value": "≥ 20", "unit": "mg/kg/day"}
    ]},
    {"smiles": "O=N[O-].[Na+]", "note": "[Sodium nitrite]", "values": [
      {"measurement": "LEL", "setting": "rat [4]; [19]", "value": 320, "unit": "mg/kg/day"},
      {"measurement": "LOAEL", "setting": "rat [4]; [19]", "value": "> 407", "unit": "mg/kg/day"},
      {"measurement": "NEL", "setting": "rat [4]; [19]", "value": "< 320", "unit": "mg/kg/day"},
      {"measurement": "NOAEL", "setting": "rat [4]; [19]", "value": "≥ 407", "unit": "mg/kg/day"},
      {"measurement": "LEL", "setting": "rat [4]; [20]", "value": 320, "unit": "mg/kg/day"},
      {"measurement": "LOAEL", "setting": "rat [4]; [20]", "value": "> 407", "unit": "mg/kg/day"},
      {"measurement": "NEL", "setting": "rat [4]; [20]", "value": "< 320", "unit": "mg/kg/day"},
      {"measurement": "NOAEL", "setting": "rat [4]; [20]", "value": "≥ 407", "unit": "mg/kg/day"},
      {"measurement": "LOAEL", "setting": "rat [5]; [21]", "value": "> 100", "unit": "mg/kg/day"},
      {"measurement": "NOAEL", "setting": "rat [5]; [21]", "value": "≥ 100", "unit": "mg/kg/day"},
      {"measurement": "LEL", "setting": "rat [5]; [22]", "value": 25.1, "unit": "mg/kg/day"},
      {"measurement": "NEL", "setting": "rat [5]; [22]", "value": "< 25.1", "unit": "mg/kg/day"},
      {"measurement": "LEL", "setting": "rat [5]; [23]", "value": 100, "unit": "mg/kg/day"},
      {"measurement": "LOAEL", "setting": "rat [5]; [23]", "value": "> 100", "unit": "mg/kg/day"},
      {"measurement": "NEL", "setting": "rat [5]; [23]", "value": 50, "unit": "mg/kg/day"},
      {"measurement": "NOAEL", "setting": "rat [5]; [23]", "value": "≥ 100", "unit": "mg/kg/day"}
    ]},
    {"smiles": "CCC(CC)Nc1cc(C)nc(Oc2c(C)cc(C)cc2C)c1C", "values": [
      {"measurement": "LEL", "setting": "rabbit [6]; [12]", "value": 50, "unit": "mg/kg/day"},
      {"measurement": "LOAEL", "setting": "rabbit [6]; [12]", "value": "> 100", "unit": "mg/kg/day"},
      {"measurement": "NOAEL", "setting": "rabbit [6]; [12]", "value": "≥ 100", "unit": "mg/kg/day"},
      {"measurement": "LOAEL", "setting": "rabbit [6]; [24]", "value": "> 100", "unit": "mg/kg/day"},
      {"measurement": "NOAEL", "setting": "rabbit [6]; [24]", "value": "≥ 100", "unit": "mg/kg/day"},
      {"measurement": "LEL", "setting": "rabbit [6]; [25]", "value": 10, "unit": "mg/kg/day"},
      {"measurement": "NEL", "setting": "rabbit [6]; [25]", "value": "< 10", "unit": "mg/kg/day"}
    ]},
    {"smiles": "OC[C@H]1O[C@@H]2O[C@H]3[C@H](O)[C@@H](O)[C@@H](O[C@H]4[C@H](O)[C@@H](O)[C@@H](O[C@H]5[C@H](O)[C@@H](O)[C@@H](O[C@H]6[C@H](O)[C@@H](O)[C@@H](O[C@H]7[C@H](O)[C@@H](O)[C@@H](O[C@H]1[C@H](O)[C@H]2O)O[C@@H]7CO)O[C@@H]6CO)O[C@@H]5CO)O[C@@H]4CO)O[C@@H]3CO", "note": "[alpha-Cyclodextrin]", "values": [
      {"measurement": "LEL", "setting": "rabbit [7]", "value": 6.7, "unit": "mg/kg/day"},
      {"measurement": "LOAEL", "setting": "rabbit [7]", "value": "> 6.7", "unit": "mg/kg/day"},
      {"measurement": "NEL", "setting": "rabbit [7]", "value": 3.8, "unit": "mg/kg/day"},
      {"measurement": "NOAEL", "setting": "rabbit [7]", "value": "≥ 6.7", "unit": "mg/kg/day"}
    ]},
    {"smiles": "CC#C[C@]1(O)CC[C@H]2[C@@H]3CCC4=CC(=O)CCC4=C3[C@@H](c3ccc(N(C)C)cc3)C[C@@]21C", "note": "[Mifepristone]", "values": [
      {"measurement": "LEL", "setting": "mouse [8]", "value": 150, "unit": "mg/kg/day"},
      {"measurement": "LOAEL", "setting": "mouse [8]", "value": "> 150", "unit": "mg/kg/day"},
      {"measurement": "NEL", "setting": "mouse [8]", "value": "< 150", "unit": "mg/kg/day"},
      {"measurement": "NOAEL", "setting": "mouse [8]", "value": "≥ 150", "unit": "mg/kg/day"},
      {"measurement": "LEL", "setting": "mouse [9]", "value": 150, "unit": "mg/kg/day"},
      {"measurement": "LOAEL", "setting": "mouse [9]", "value": "> 150", "unit": "mg/kg/day"},
      {"measurement": "NEL", "setting": "mouse [9]", "value": "< 150", "unit": "mg/kg/day"},
      {"measurement": "NOAEL", "setting": "mouse [9]", "value": "≥ 150", "unit": "mg/kg/day"},
      {"measurement": "LEL", "setting": "rat [10]", "value": 150, "unit": "mg/kg/day"},
      {"measurement": "LOAEL", "setting": "rat [10]", "value": "> 150", "unit": "mg/kg/day"},
      {"measurement": "NEL", "setting": "rat [10]", "value": "< 150", "unit": "mg/kg/day"},
      {"measurement": "NOAEL", "setting": "rat [10]", "value": "≥ 150", "unit": "mg/kg/day"},
      {"measurement": "LEL", "setting": "rat [11]", "value": 150, "unit": "mg/kg/day"},
      {"measurement": "LOAEL", "setting": "rat [11]", "value": "> 150", "unit": "mg/kg/day"},
      {"measurement": "NEL", "setting": "rat [11]", "value": "< 150", "unit": "mg/kg/day"},
      {"measurement": "NOAEL", "setting": "rat [11]", "value": "≥ 150", "unit": "mg/kg/day"}
    ]}
  ]
}
